Data as given in ChEMBL document CHEMBL4152205, “Therapeutic journery of nitrogen mustard as alkylating anticancer agents: Historic to future perspectives” (2018).

Tests used:
IMR-32 = test: Cytotoxicity against human IMR32 cells assessed as reduction in cell viability after 3 days by MTT assay
U-87 MG = test: Cytotoxicity against human U87 cells assessed as reduction in cell viability after 3 days by MTT assay; settings: u-87mg atcc
A549 = test: Cytotoxicity against human A549 cells assessed as reduction in cell viability after 3 days by MTT assay
COLO 205 = test: Cytotoxicity against human COLO205 cells assessed as reduction in cell viability after 3 days by MTT assay

Measured: IC50

O=C(O)CCCc1ccc(N(CCCl)CCCl)cc1
18.8 to 26.7 µM: IMR-32 | U-87 MG | A549 | COLO 205
